Laboratory results reported in patent US20100016338A1, “5-[(3,3,3-Trifluoro-2-hydroxy-1-arylpropyl)amino]-1-arylquinolin-2-ones, a Process for their Production and their Use as Anti-inflammatory Agents” (BAYER SCHERING PHARMA AKTIENGESELLSCHAFT, priority 2008, published 2010).

Protein sequences, listed by entry. Tags and fused reporters are not part of them.
UniProt P04150, whole entry: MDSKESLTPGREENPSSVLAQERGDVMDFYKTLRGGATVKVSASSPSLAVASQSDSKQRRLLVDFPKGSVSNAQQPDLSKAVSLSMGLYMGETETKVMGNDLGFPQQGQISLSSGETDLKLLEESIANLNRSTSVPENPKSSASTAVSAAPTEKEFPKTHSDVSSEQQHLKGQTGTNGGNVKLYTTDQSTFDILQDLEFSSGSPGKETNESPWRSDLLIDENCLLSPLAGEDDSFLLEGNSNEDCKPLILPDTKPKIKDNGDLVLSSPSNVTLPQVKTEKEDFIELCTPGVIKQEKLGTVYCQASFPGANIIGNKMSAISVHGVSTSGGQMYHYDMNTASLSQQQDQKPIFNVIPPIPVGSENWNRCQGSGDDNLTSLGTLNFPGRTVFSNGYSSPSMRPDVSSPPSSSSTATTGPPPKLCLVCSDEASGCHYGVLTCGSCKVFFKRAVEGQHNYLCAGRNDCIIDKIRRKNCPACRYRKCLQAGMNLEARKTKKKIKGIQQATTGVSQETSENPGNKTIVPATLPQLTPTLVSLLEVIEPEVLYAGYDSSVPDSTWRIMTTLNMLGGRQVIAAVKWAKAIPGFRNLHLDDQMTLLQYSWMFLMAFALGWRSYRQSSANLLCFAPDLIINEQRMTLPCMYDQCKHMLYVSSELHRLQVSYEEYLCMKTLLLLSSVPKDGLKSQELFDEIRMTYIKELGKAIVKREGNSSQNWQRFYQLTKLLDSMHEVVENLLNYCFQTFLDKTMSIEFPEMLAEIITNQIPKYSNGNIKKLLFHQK

Legend:
[1] = test system: cytokine IL-8 secretion, human monocyte cell line THP-1; test: inhibition of LPS-triggered IL-8 secretion in THP-1 cells (ELISA); settings: read-out: IC50(IL8)
Procedure: The concentration of the cytokines was determined in the supernatant by means of commercially available ELISA kits.

[2] = biological target: glucocorticoid receptor (GR) (Homo sapiens, UniProt P04150); test: binding to the glucocorticoid receptor (recombinant receptor, cytosol of baculovirus-infected Sf9 cells); settings: read-out: IC50(GR)
From the text: The binding of the substances to the glucocorticoid receptor (GR) and other steroid hormone receptors (mineral corticoid receptor (MR), progesterone receptor (PR) and androgen receptor (AR)) is examined with the aid of recombinantly produced receptors. Cytosol preparations of Sf9 cells, which had been infected with recombinant baculoviruses, which code for the GR, are used for the binding studies.

SMILES	IC50 [1] [nM]	IC50 [2] [nM]
COCC(O)(C(Nc1cc(F)cc2c1ccc(=O)n2-c1ccc(F)cc1)c1ccc(OC)c(F)c1Cl)C(F)(F)F (stereo not drawn)	0.79	7.7
COc1cccc(C(Nc2cccc3nc(C)ccc23)C(O)(CCl)C(F)(F)F)c1 (stereo not drawn)	25	
